Source: patent US20200040085A1

Molecular target: recombinant HLA-DQ2.5/33 mer gliadin peptide (human)
Test: bead-based flow cytometry: HLA-DQ2.5/33 mer gliadin peptide on streptavidin beads, antibody titrated, blocking of D2 TCR tetramer-PE binding [panel DQ2.5/D2 TCR neutralization]

## DQN0016 (antibody)
  IC50 (read off the curve): 0.04 µg/mL

## DQN0139 (antibody)
  IC50 (read off the curve): 0.04 µg/mL

## DQN0157 (antibody)
  IC50 (read off the curve): 0.02 µg/mL
